# Data as given in BindingDB's records for 35016113, “Dual Sigma-1 receptor antagonists and hydrogen sulfide-releasing compounds for pain treatment: Design, synthesis, and pharmacological evaluation” (2022).
# Sequences of proteins named here, by UniProt entry; tags and fusion partners are left off. A change or cut given only in a name is not applied to a line headed by its entry.
# UniProt P41144: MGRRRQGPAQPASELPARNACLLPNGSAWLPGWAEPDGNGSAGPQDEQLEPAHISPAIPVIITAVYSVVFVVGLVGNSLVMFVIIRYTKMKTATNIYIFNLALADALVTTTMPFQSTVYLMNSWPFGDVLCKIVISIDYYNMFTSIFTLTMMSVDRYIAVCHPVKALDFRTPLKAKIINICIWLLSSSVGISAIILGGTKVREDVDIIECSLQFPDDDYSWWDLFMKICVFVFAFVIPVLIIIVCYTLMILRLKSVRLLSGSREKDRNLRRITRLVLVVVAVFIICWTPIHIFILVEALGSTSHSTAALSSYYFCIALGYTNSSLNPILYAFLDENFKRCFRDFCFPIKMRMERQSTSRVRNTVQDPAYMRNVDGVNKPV
# Target: Kappa-type opioid receptor (Cavia porcellus, UniProt P41144)
# Assay: Displacement of [3H]-U69593 from Dunkin-Hartley guinea pig brain membrane kappa opioid receptor incubated for 30 mins by liquid scintillation counting analysis
smiles,measurement,value
CN(C(=O)Cc1ccc(Cl)c(Cl)c1)[C@@H]1CCCC[C@H]1N1CCCC1,Ki,1.1 nM
